Laboratory results: patent US10568884B2, “Compounds and compositions as protein kinase inhibitors” (Array BioPharma, Inc., priority 2009, dated 2020)

System: A375 melanoma cell line (B-Raf V600E)
Test: A375 Cellular Proliferation Assay (A375 CP)
Format: cell-based
Conditions: Homo sapiens, A-375, 48 h; A375-luc cells, 2 days
Experimental: A375-luc cells engineered to express luciferase are plated to 384-well white clear bottom plates as 1,500 cells/50 μl/well in DMEM containing 10% FBS. Compounds of the invention dissolved in 100% DMSO at appropriate concentrations are transferred to the cells by a robotic Pin Tool (100 nl). The cells are incubated for 2 days at […], then 25 μl of BrightGlo™ is added to each well and the plates are read by luminescence.

- IC50: 23 nM
SMILES: COC(=O)N[C@@H](C)CNc1nccc(-c2cn(C(C)C)nc2-c2cc(F)cc(NS(=O)(=O)C3CC3)c2F)n1 [Compound 24, methyl N-[(2S)-1-({4-[3-(3-cyclopropanesulfonamido-2,5-difluorophenyl)-1-(propan-2-yl)-1H-pyrazol-4-yl]pyrimidin-2-yl}amino)propan-2-yl]carbamate]
